Experiment: Thermodynamic solubility test in buffer solution (HPLC)
Type: physicochemical
Details: 37° C., 24 hours, compared with dabigatran etexilate mesylate
Method: The solubility tests were performed in a buffer solution at ph 4.5 and compared with the solubility data of dabigatran etexilate mesylate (commercial form). In the HPLC method herein below, acetonitrile was used to dissolve the active ingredient.
Thermodynamic Solubility Tests
The sample (approx. 50 mg) was weighted in a vial and left under magnetic stirring (approx. 300 rpm) in approx. 2 mL of buffer solution at 37° C. for 24 hours. The experiments were carried out at pH 4.5 and pH 6.8. The suspensions were filtered with 0.45 μm filter and analyzed by HPLC method previously reported. From the obtained area an opportune dilution of the sample was performed to obtain a value consistent with the Calibration Curve. Every diluted sample was analyzed by HPLC and the results were interpolated by the calibration curve.
Each experiment was replicated twice.

- thermodynamic solubility, times higher than the mesylate derivative: more than 1.4 times
Substance: Dabigatran Etexilate Orotate Anhydrous Form a (Dabigatran/Orotic Acid 1/1 Mol/Mole)

From US20170165247A1, “CRYSTALLINE COMPOUNDS OF DABIGATRAN ETEXILATE” (OLON S.p.A., priority 2014, published 2017)
